Laboratory results from patent US20250195530A1, “POLQ INHIBITORS” (ASTRAZENECA AB, priority 2022, published 2025).

Amino acid sequences for entries named in this document (tags omitted). Residues count along the entry.
UniProt O75417, 1780-2590: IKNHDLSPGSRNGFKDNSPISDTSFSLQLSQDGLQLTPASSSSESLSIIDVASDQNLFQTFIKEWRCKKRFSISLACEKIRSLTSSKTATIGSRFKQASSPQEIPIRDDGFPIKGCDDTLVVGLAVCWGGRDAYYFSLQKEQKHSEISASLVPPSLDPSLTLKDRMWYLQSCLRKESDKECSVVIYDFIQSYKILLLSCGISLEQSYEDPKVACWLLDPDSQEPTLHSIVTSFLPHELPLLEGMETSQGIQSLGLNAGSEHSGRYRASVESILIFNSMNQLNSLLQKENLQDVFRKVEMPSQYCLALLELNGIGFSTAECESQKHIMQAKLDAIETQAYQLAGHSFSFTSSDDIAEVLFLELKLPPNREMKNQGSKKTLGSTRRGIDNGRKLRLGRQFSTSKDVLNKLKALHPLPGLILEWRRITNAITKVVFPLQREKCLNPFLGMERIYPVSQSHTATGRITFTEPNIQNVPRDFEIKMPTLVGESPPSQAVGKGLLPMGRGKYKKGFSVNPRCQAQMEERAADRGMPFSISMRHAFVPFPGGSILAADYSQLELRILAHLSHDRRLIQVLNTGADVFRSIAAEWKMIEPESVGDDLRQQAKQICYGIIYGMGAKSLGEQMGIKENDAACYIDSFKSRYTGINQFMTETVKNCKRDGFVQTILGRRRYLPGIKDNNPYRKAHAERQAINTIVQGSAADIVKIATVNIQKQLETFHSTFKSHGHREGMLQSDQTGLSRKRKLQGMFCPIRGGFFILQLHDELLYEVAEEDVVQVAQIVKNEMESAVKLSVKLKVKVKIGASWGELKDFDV

Molecular target: isolated polymerase domain (I1780-V2590) of DNA polymerase theta (Polθ) (Homo sapiens (Human), UniProt O75417)
Assay: biochemical

| Compound | IC50 |
| --- | --- |
| CC(CCCOc1ccc(-c2nc3c(OC4(C)CC4)ncnc3n2Cc2cccc(Cl)c2)c(Cl)c1)C(=O)O (single isomer, unassigned) [Example T438, 5-(3-chloro-4-(9-(3-chlorobenzyl)-6-(1-methylcyclopropoxy)-9H-purin-8-yl)phenoxy)-2-methylpentanoic acid] | 3.16 nM |
| Cc1ccnc(Cn2c(-c3ccc(N4CCC5NCCC54)cc3Cl)nc3c(OC4(C)CC4)ncnc32)c1 (stereo not shown) [Example T492, 8-(2-chloro-4-(hexahydropyrrolo[3,2-b]pyrrol-1(2H)-yl)phenyl)-6-(1-methylcyclopropoxy)-9-((4-methylpyridin-2-yl)methyl)-9H-purine] | 6.31 nM |
| Cc1cnc(Cn2c(-c3ccc(OC[C@H]4CCCN4C)cc3Cl)nc3c(OC4(C)CC4)ncnc32)s1 [Example T240, (R)-2-((8-(2-chloro-4-((1-methylpyrrolidin-2-yl)methoxy)phenyl)-6-(1-methylcyclopropoxy)-9H-purin-9-yl)methyl)-5-methylthiazole] | 5.01 nM |
| CC(c1cc(Cl)ccn1)n1c(-c2ccc(OCCN3CCNCC3)cc2Cl)nc2c(OC3(C)CC3)ncnc21 (single isomer, unassigned; isomer 1) [Example S6, 8-(2-chloro-4-(2-(piperazin-1-yl)ethoxy)phenyl)-9-(1-(4-chloropyridin-2-yl)ethyl)-6-(1-methylcyclopropoxy)-9H-purine (Isomer 1)] | 3.16 nM |
| CC(CCOc1ccc(-c2nc3c(OC4(C)CC4)ncnc3n2Cc2cccc(F)c2)c(Cl)c1)C(=O)O (racemic) [Example U6, 4-(3-chloro-4-(9-(3-fluorobenzyl)-6-(1-methylcyclopropoxy)-9H-purin-8-yl)phenoxy)-2-methylbutanoic acid] | 6.31 nM |
| COc1ccc(C(F)(F)F)cc1Cn1c(-c2ccc(OCC[C@H](C)C(=O)O)cc2Cl)nc2c(OC3(C)CC3)ncnc21 [Example U76, (S)-4-(3-chloro-4-(9-(2-methoxy-5-(trifluoromethyl)benzyl)-6-(1-methylcyclopropoxy)-9H-purin-8-yl)phenoxy)-2-methylbutanoic acid] | 3.98 nM |
| CC(COc1cccc(-c2nc3c(OC4(C)CC4)ncnc3n2Cc2cccc(Cl)c2)c1Cl)CC(=O)O (single isomer, unassigned) [Example T299, 4-(2-chloro-3-(9-(3-chlorobenzyl)-6-(1-methylcyclopropoxy)-9H-purin-8-yl)phenoxy)-3-methylbutanoic acid] | 7.94 nM |
| CC1(Oc2ncnc3c2nc(-c2ccc(CC(N)=O)cc2Cl)n3Cc2ccc(C#N)cc2)CC1 [Example T83, 2-(3-chloro-4-(9-(4-cyanobenzyl)-6-(1-methylcyclopropoxy)-9H-purin-8-yl)phenyl)acetamide] | 50.1 nM |
| CC(C)(C)Oc1cccc2c1nc(-c1ccc(OCCC(=O)O)cc1Cl)n2Cc1cccc(Cl)c1 [Example T288, 3-(4-(4-(tert-butoxy)-1-(3-chlorobenzyl)-1H-benzo[d]imidazol-2-yl)-3-chlorophenoxy)propanoic acid] | 15.8 nM |
| COc1ccc(Cl)cc1Cn1c(-c2cccc(OCC[C@H](C)C(=O)O)c2Cl)nc2c(OC3(C)CC3)ncnc21 [Example U73, (S)-4-(2-chloro-3-(9-(5-chloro-2-methoxybenzyl)-6-(1-methylcyclopropoxy)-9H-purin-8-yl)phenoxy)-2-methylbutanoic acid] | 3.16 nM |
| CC(COc1cccc(-c2nc3c(OC4(C)CC4)ncnc3n2Cc2cccc(Cl)c2)c1Cl)CC(=O)O (single isomer, unassigned) [Example T300, 4-(2-chloro-3-(9-(3-chlorobenzyl)-6-(1-methylcyclopropoxy)-9H-purin-8-yl)phenoxy)-3-methylbutanoic acid] | 3.98 nM |
| CC(C)(CCOc1cccc(-c2nc3c(OC4(C)CC4)ncnc3n2Cc2cccc(Cl)c2)c1Cl)CC(=O)O [Example U28, 5-(2-chloro-3-(9-(3-chlorobenzyl)-6-(1-methylcyclopropoxy)-9H-purin-8-yl)phenoxy)-3,3-dimethylpentanoic acid] | 7.94 nM |
| Cc1cccc(Cn2c(-c3ccc(CC(N)=O)cc3Cl)nc3c(OC4(C)CC4)ncnc32)n1 [Example T59, 2-(3-chloro-4-(6-(1-methylcyclopropoxy)-9-((6-methylpyridin-2-yl)methyl)-9H-purin-8-yl)phenyl)acetamide] | 25.1 nM |
| CC(CCOc1ccc(-c2nc3c(OC4(C)CC4)ncnc3n2Cc2cccc(C(F)(F)F)c2)c(Cl)c1)C(=O)O (single isomer, unassigned) [Example T397, 4-(3-chloro-4-(6-(1-methylcyclopropoxy)-9-(3-(trifluoromethyl)benzyl)-9H-purin-8-yl)phenoxy)-2-methylbutanoic acid] | 6.31 nM |
| CC(CCOc1ccc(-c2nc3c(OC4(C)CC4)ncnc3n2Cc2cccc(Cl)c2F)c(Cl)c1)C(=O)O (single isomer, unassigned) [Example T270, 4-(3-chloro-4-(9-(3-chloro-2-fluorobenzyl)-6-(1-methylcyclopropoxy)-9H-purin-8-yl)phenoxy)-2-methylbutanoic acid] | 6.31 nM |
| C[C@@H](CCOc1cccc(-c2nc3c(OC4(C)CC4)ncnc3n2Cc2cc(Cl)ccc2F)c1Cl)C(=O)O [Example U24, (S)-4-(2-chloro-3-(9-(5-chloro-2-fluorobenzyl)-6-(1-methylcyclopropoxy)-9H-purin-8-yl)phenoxy)-2-methylbutanoic acid] | 6.31 nM |
| Cc1cnc(Cn2c(-c3cccc(OCCN4CC(O)C4)c3Cl)nc3c(OC4(C)CC4)ncnc32)s1 [Example T142, 1-(2-(2-chloro-3-(6-(1-methylcyclopropoxy)-9-((5-methylthiazol-2-yl)methyl)-9H-purin-8-yl)phenoxy)ethyl)azetidin-3-ol] | 15.8 nM |
| CC(CCOc1ccc(-c2nc3c(OC(C)(C)C(F)(F)F)ncnc3n2Cc2cccc(Cl)c2)c(Cl)c1)C(=O)O (racemic) [Example T274, 4-(3-chloro-4-(9-(3-chlorobenzyl)-6-((1,1,1-trifluoro-2-methylpropan-2-yl)oxy)-9H-purin-8-yl)phenoxy)-2-methylbutanoic acid] | 3.98 nM |
| C[C@H](CCOc1ccc(-c2nc3c(OC4(C)CC4)ncnc3n2Cc2ccccc2C#N)c(Cl)c1)C(=O)O [Example T402, (R)-4-(3-chloro-4-(9-(2-cyanobenzyl)-6-(1-methylcyclopropoxy)-9H-purin-8-yl)phenoxy)-2-methylbutanoic acid] | 10 nM |

The next lines start with the values.

| IC50 | Compound |
| --- | --- |
| 10 nM | CC[C@H](CO)NC(=O)COc1ccc(-c2nc3c(OC4(C)CC4)ncnc3n2Cc2cc(C)ccn2)c(Cl)c1 [Example T518, (R)-2-(3-chloro-4-(6-(1-methylcyclopropoxy)-9-((4-methylpyridin-2-yl)methyl)-9H-purin-8-yl)phenoxy)-N-(1-hydroxybutan-2-yl)acetamide] |
| 6.31 nM | Cc1ccnc(Cn2c(-c3ccc(OC4CNC(=O)C4)cc3Cl)nc3c(OC4(C)CC4)ncnc32)c1 (racemic) [Example T179, 4-(3-chloro-4-(6-(1-methylcyclopropoxy)-9-((4-methylpyridin-2-yl)methyl)-9H-purin-8-yl)phenoxy)pyrrolidin-2-one] |
| 6.31 nM | Cc1ccnc(Cn2c(-c3ccc(OCCCN(C)C)cc3Cl)nc3c(OC4(C)CC4)ncnc32)c1 [Example T385, 3-(3-chloro-4-(6-(1-methylcyclopropoxy)-9-((4-methylpyridin-2-yl)methyl)-9H-purin-8-yl)phenoxy)-N,N-dimethylpropan-1-amine] |
| 12.6 nM | Cc1ccnc(Cn2c(-c3ccc(S(C)(=O)=O)cc3Cl)nc3c(OC4(C)CC4)ncnc32)c1 [Example T16, 8-(2-chloro-4-(methylsulfonyl)phenyl)-6-(1-methylcyclopropoxy)-9-((4-methylpyridin-2-yl)methyl)-9H-purine] |
| 7.94 nM | Cc1ccnc(Cn2c(-c3ccc(N4C[C@H]5C[C@@H]4CN5)cc3Cl)nc3c(OC4(C)CC4)ncnc32)c1 [Example T336, 8-(4-((1R,4R)-2,5-diazabicyclo[2.2.1]heptan-2-yl)-2-chlorophenyl)-6-(1-methylcyclopropoxy)-9-((4-methylpyridin-2-yl)methyl)-9H-purine] |
| 7.94 nM | Cc1ccnc(Cn2c(-c3ccc(N4CCC5(CNC5)C4)cc3Cl)nc3c(OC4(C)CC4)ncnc32)c1 [Example T490, 8-(2-chloro-4-(2,6-diazaspiro[3.4]octan-6-yl)phenyl)-6-(1-methylcyclopropoxy)-9-((4-methylpyridin-2-yl)methyl)-9H-purine] |
| 3.98 nM | Cc1ccnc(Cn2c(-c3ccc(CCN4CCNCC4)cc3Cl)nc3c(OC4(C)CC4)ncnc32)c1 [Example T528, 8-(2-chloro-4-(2-(piperazin-1-yl)ethyl)phenyl)-6-(1-methylcyclopropoxy)-9-((4-methylpyridin-2-yl)methyl)-9H-purine] |
| 5.01 nM | Cc1ccnc(Cn2c(-c3ccc(OCCCS(C)(=O)=O)cc3Cl)nc3c(OC4(C)CC4)ncnc32)c1 [Example T234, 8-(2-chloro-4-(3-(methylsulfonyl)propoxy)phenyl)-6-(1-methylcyclopropoxy)-9-((4-methylpyridin-2-yl)methyl)-9H-purine] |
| 25.1 nM | COc1ccnc(Cn2c(-c3ccc(CC(N)=O)cc3Cl)nc3c(OC4(C)CC4)ncnc32)c1 [Example T63, 2-(3-chloro-4-(9-((4-methoxypyridin-2-yl)methyl)-6-(1-methylcyclopropoxy)-9H-purin-8-yl)phenyl)acetamide] |
| 10 nM | Cc1ccnc(Cn2c(-c3cccc(OCCN(C)C)c3Cl)nc3c(OC4(C)CC4)ncnc32)c1 [Example T237, 2-(2-chloro-3-(6-(1-methylcyclopropoxy)-9-((4-methylpyridin-2-yl)methyl)-9H-purin-8-yl)phenoxy)-N,N-dimethylethan-1-amine] |
| 6.31 nM | Cc1ccnc(Cn2c(-c3ccc(CC(=O)N4C[C@@H](C)N[C@@H](C)C4)cc3Cl)nc3c(OC4(C)CC4)ncnc32)c1 [Example T606, 2-(3-chloro-4-(6-(1-methylcyclopropoxy)-9-((4-methylpyridin-2-yl)methyl)-9H-purin-8-yl)phenyl)-1-((3R,5S)-3,5-dimethylpiperazin-1-yl)ethan-1-one] |
| 15.8 nM | Cc1ccnc(Cn2c(-c3ccc(C(=O)NCCCO)cc3Cl)nc3c(OC4(C)CC4)ncnc32)c1 [Example T217, 3-chloro-N-(3-hydroxypropyl)-4-(6-(1-methylcyclopropoxy)-9-((4-methylpyridin-2-yl)methyl)-9H-purin-8-yl)benzamide] |
